Measurements published in patent US10000473B2, “Indazole derivatives useful as glucagon receptor antagonists” (Janssen Pharmaceutica NV, priority 2016, dated 2018).

The chains behind the UniProt entries cited, without tags or fusion partners. Residues count along the entry.
UniProt P47871, 26-477 limits assumed: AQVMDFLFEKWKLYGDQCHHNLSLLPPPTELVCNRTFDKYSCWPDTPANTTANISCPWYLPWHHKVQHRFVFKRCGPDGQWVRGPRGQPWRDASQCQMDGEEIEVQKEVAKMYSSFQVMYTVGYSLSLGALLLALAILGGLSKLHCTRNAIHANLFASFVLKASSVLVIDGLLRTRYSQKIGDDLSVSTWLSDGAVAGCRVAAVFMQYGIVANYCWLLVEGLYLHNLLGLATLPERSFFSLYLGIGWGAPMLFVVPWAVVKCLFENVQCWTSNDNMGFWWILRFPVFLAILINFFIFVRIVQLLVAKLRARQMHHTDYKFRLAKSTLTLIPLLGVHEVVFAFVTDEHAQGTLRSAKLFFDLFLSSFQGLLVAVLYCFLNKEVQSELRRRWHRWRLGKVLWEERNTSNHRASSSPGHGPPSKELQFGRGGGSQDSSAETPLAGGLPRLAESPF

What follows are compounds tested against human GCGR (Homo sapiens, UniProt P47871) (assay: Cellular functional assay, cAMP readout (glucagon-stimulated cAMP, LANCE TR-FRET)). Conditions: read-out: Inhibition of cAMP Ki; HEK293 cells stably expressing full-length human GCGR; glucagon 100 pM; IC50 converted to Ki.
Type: cell-based

Row | pKi | Compound
1 | 7.00 | O=C(O)CCNC(=O)c1ccc(C(CCC2CCC2)n2cc3cc(-c4ccc(C(F)(F)F)cc4)ccc3n2)cc1 (stereo not shown) [Compound #215, 3-(4-(3-Cyclobutyl-1-(5-(4-(trifluoromethyl)phenyl)-2H-indazol-2-yl)propyl)benzamido)propanoic acid]
2 | 6.32 | O=C(O)CCNC(=O)c1ccc(C(CCc2ccc(Cl)cc2)n2ncc3cc(-c4ccc(C(F)(F)F)cc4)ccc32)cc1 (stereo not shown)
3 | 6.44 | O=C(O)CCNC(=O)c1ccc(C(CCC2CCCCC2)n2ncc3cc(-c4ccc(C(F)(F)F)cc4)ccc32)cn1 (stereo not shown)
4 | 5.62 | COCCC(c1ccc(C(=O)NCCC(=O)O)cc1)n1ncc2cc(-c3ccc(C(F)(F)F)cc3)ccc21 (stereo not shown)

pKi: −log10 of the molar value.
